We go through 34 compounds from PubChem BioAssay AID493084 (National Center for Advancing Translational Sciences (NCATS), 2011).

By UniProt entry, the sequences of proteins in these tests, tags left out.
UniProt P34981, whole entry: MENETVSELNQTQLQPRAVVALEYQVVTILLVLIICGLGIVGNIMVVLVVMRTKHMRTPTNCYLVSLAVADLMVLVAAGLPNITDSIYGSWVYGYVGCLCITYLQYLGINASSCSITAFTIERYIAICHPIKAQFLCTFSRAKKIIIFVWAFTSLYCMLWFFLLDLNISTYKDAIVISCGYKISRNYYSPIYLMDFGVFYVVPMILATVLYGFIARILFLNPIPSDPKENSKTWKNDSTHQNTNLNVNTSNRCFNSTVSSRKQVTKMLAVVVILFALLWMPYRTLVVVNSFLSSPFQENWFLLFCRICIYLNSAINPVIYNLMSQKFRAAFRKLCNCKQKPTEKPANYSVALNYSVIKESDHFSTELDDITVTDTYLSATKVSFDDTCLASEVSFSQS

Several values for one entry are separate records, joined by “and”; a condition that tells them apart may be missing. Equal entries are not always repeated. The list shows a part of the results, in another mix than the full data. Some results for these compounds are left out of this collection, so the calls shown say nothing about other tests. Activity calls are given as the source filed them. Rule as the data show it: active = activation above about 30%; inactive = the rest.

The target of this assay is Thyrotropin-releasing hormone receptor (Homo sapiens) (UniProt P34981). Kind of assay: qHTS for Small Molecule Agonists and Allosteric Enhancers of Human TRH Receptor: Primary Screen for Agonists. Also: 0% is about no effect. The settings on record: TRHR cells, calcium flux fluo-8, FDSS agonist mode; at 2 µM; stronger effect = higher value. An excerpt:
NIH Chemical Genomics Center [NCGC] NIH Molecular Libraries Probe Centers Network [MLPCN] MLPCN Grant: MH089816-01 Assay Submitter (PI): Marvin Gershengorn This project aims to identify small drug-like molecules that activate (agonists) the thyrotropin releasing hormone (TRH) receptor (TRHR) or enhance its TRH-stimulated activity (allosteric enhancers). TRHR, a drug-accessible cell surface receptor expressed in specific brain regions, and its ligand TRH have been implicated in several central nervous system disorders, including depression and anxiety. Small molecule TRHR agonists or allosteric enhancers that are metabolically stable and able to cross the blood-brain barrier might serve as probes to elucidate the roles of brain TRH receptors in animal models, and might be valuable as lead compounds for the development of drugs to treat patients with central nervous system disorders. Upon TRHR-Gq activation in TRHR cells, intracellular calcium is released from stores in the endoplasmic reticulum. […] This primary screen measures compound-induced activation of calcium release.
For the HTS assay freshly prepared cells are plated at a density of 2000/well in 3 ul of complete DMEM medium containing 10% serum in 1536-well plates and cultured over night at 37 C in a humidified incubator with 5% CO2. The next day, 2 ul of a no wash calcium dye (ABD Bioquest) was added to the cells and plates were incubated at room temperature for 1 hour. For the assay, assay plates were loaded into the FDSS kinetic plate reader. A 10 cycle (1 second/cycle) baseline measurement is taken and then the FDSS online 1536 pintool delivers 23 nl of compound library (as well as TRH controls) to the plate. The plate is measured for kinetically at 1 cycle/sec for 180 seconds and is considered to be the agonist portion of the assay (eg, compounds which activate a positive calcium response during this portion are flagged as potential agonists). Following the 180 second read, 1 ul of either an EC20 (positive modulation assay) is delivered by an onboard pipette head. Measurements are taken kinetically for an additional 180 seconds. TRHR FDSS Screening Protocol 1. Reagent, 3 uL 2000 cells/well 1536 TC treated Black plate in media containing 10% FCS 2. Time, 18 hours, 33.5C 5% CO2 (cells grown at 37C) 3. Reagent, 2 uL ABD fluo-8 Ca dye 4. Time, 30 min-1.5hrs hours, Room temp (6 plates/batch) 5. Detector, EX 480/EM 530C, FDSS 10 cycles baseline (1sec/cycle) 6. Compound, 23 nL of stock solution from library 7. Detector, EX 480/EM 530C, FDSS […] (1sec/cycle) Agonist mode 8. Compound, 1 ul EC20 of TRH made up in HEPES HBSS, 10 nM final 9. Detector, EX 480/EM 530C, FDSS 100 cycles (1sec/cycle) Potentiator mode
On the technique in general: In qHTS, concentration-response curves come from the screen itself.
In the case of `O=C(NCC1(N2CCCCC2)CCCCC1)c1cc([N+](=O)[O-])ccc1Cl`, the activation is inactive: 0.846%.

`CN1[C@@H]2CC[C@H]1CC(OC(=O)C(O)(c1ccccc1)c1ccccc1)C2` (some centres undefined): the activation is inactive: -0.217%.

`CC(C)N1C(=O)CC2(CCN(CCOC(=O)C(O)(c3ccccc3)c3ccccc3)CC2)C1=O`: the activation is inactive: -0.0782%. The figure for `COc1cc(SC)ccc1C(=O)NCC1(N(C)C)CCCCC1` is inactive: 0.0998%; for `CCN(CC)CC(C)C(C)OC(=O)C(O)(c1ccccc1)c1ccccc1` (centres undefined) it is inactive: 0.895%. With `CN(C)C1(CNC(=O)c2cccc(Cl)c2)CCCCC1` the figure was inactive: 0.901%; with `CN(C)C1(CNC(=O)c2ccccc2F)CCCCC1`, inactive: 0.447%.

In the case of `Cc1ccc(C(=O)NCC2(N3CCCCC3)CCCCC2)cc1`, the activation is inactive: -0.172%.

Regarding `CN(C)C1CCCC1OC(=O)C(O)(c1ccccc1)c1ccccc1` (centres undefined), the activation was inactive: 0.188%. As for `CN(C)c1ccc(C(=O)NCC2(N(C)C)CCCCC2)cc1`, the activation is inactive: 0.487%. The figure for `CN(C)C1(CNC(=O)c2ccccc2[N+](=O)[O-])CCCCC1` is inactive: 0.413%; for `Cc1ccccc1C(=O)NCC1(N2CCCCC2)CCCCC1` it is inactive: -0.555%; for `CCCCOc1ccccc1C(=O)NCC1(N(C)C)CCCCC1` it is inactive: 0.739%. With `O=C(NCC1(N2CCCCC2)CCCCC1)c1cc(F)c(F)cc1Cl` the figure was inactive: -0.123%; with `C=CCN1CCN(CCOC(=O)C(O)(c2ccccc2)c2ccccc2)CC1`, inactive: 0.337%; with `O=C(NCC1(N2CCCCC2)CCCCC1)c1cccc(Br)c1`, inactive: 0.683%.

Regarding `Cc1cc(C(=O)NCC2(N3CCCCC3)CCCCC2)ccc1[N+](=O)[O-]`, the activation was inactive: 1.04%. As to `CCN1CCCC(OC(=O)C2(O)c3ccccc3C=Cc3ccccc32)C1` (centres undefined), the activation is inactive: 0.951%. With `CCOc1cccc(C(=O)NCC2(N(C)C)CCCCC2)c1` the figure was inactive: 0.311%. Take `COc1ccc(C(=O)NCC2(N(C)C)CCCCC2)cc1`: the activation is inactive: -0.854%. With `CN(C)C1(CNC(=O)c2ccc(Br)cc2)CCCCC1` the figure was inactive: 0.359%.

Consider `COc1cc(C(=O)NCC2(N(C)C)CCCCC2)c([N+](=O)[O-])cc1OC`, for which the activation is inactive: -0.603%. With `COc1ccc(C(=O)NCC2(N(C)C)CCCCC2)cc1Cl` the figure was inactive: 1.55%; with `COc1ccc(Cl)cc1C(=O)NCC1(N(C)C)CCCCC1`, inactive: 0.535%.

Turning to `COc1cccc(C(=O)NCC2(N3CCCCC3)CCCCC2)c1`, the activation was inactive: 0.328%. The figure for `O=C(NCC1(N2CCCCC2)CCCCC1)c1cccc(Cl)c1` is inactive: 2.15%; for `O=C(OC1CN2CCC1CC2)C(CO)(c1ccccc1)c1ccccc1` (centres undefined) it is inactive: 2.07%; for `COc1cccc(C(=O)NCC2(N3CCOCC3)CCCCC2)c1` it is inactive: 0.311%. With `CC(C)COc1ccc(C(=O)NCC2(N(C)C)CCCCC2)cc1` the figure was inactive: 1.2%; with `COc1ccc(Br)c(C(=O)NCC2(N3CCCCC3)CCCCC2)c1`, inactive: 0.416%. The figure for `Cc1cccc(C(=O)NCC2(N(C)C)CCCCC2)c1` is inactive: 1.17%; for `COc1cc(C(=O)NCC2(N(C)C)CCCCC2)cc(OC)c1OC` it is inactive: 0.362%. For `CN(C)c1cccc(C(=O)NCC2(N(C)C)CCCCC2)c1`, the activation is inactive: -0.532%. With `CC(C)Oc1ccc(C(=O)NCC2(N(C)C)CCCCC2)cc1` the figure was inactive: 1.34% and inactive: -2.7%.
